Values of other authors, collected in patent US5167963A, “8,10-dideazatetrahydrofolic acid derivatives” (SRI International, priority 1990, dated 1992).

Conditions: in words; DeGraw et al; cited from earlier work

Structure (SMILES): Nc1nc2ccc(CNc3ccc(C(=O)N[C@@H](CCC(=O)O)C(=O)O)cc3)nc2c(=O)[nH]1 [8-deazafolic acid]
- antifolate activity: active antifolates
